Measurements published in patent US20040260071A1, “Benzophene-linked crf and crf-like peptides for covalent labeling of corticotropin-releasing factor crf binding protein” (priority 2001, published 2004).
Read-outs that look alike come from different tables or passages of the source.

Assays:
rCRFBP [1] = target: T1, rCRFBP (Rattus norvegicus, UniProt P24388); experiment: Radioligand binding assay (charcoal precipitation, 3H-rUcn) for affinity to rCRFBP
T1 construct: made in house; host or cells: HEK 293 cells, stably transfected (pcDNA3); serum-free conditioned medium used directly
T1 sequence (P24388 25-322): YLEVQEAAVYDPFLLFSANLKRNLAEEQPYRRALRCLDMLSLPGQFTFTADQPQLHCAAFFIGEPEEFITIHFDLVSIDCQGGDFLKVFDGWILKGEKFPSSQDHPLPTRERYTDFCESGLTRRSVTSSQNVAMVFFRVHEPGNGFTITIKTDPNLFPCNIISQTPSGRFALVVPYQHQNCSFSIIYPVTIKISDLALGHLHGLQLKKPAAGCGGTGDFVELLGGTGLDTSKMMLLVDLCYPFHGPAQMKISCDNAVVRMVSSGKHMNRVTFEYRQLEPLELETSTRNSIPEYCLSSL
Method: The peptides were tested for their affinity to rCRFBP on the basis of a charcoal precipitation assay utilizing tritiated Ucn as radioligand (21). […] Siliconized microreaction vials (Sigma, Deisenhofen, Germany) were used to prevent binding of peptides to plastic surfaces. Competition binding experiments were performed by employing 0 to maximally 3 μM unlabeled competitor. The applied concentration range depended on the expected order of magnitude of ligand affinity. After 2 hours of incubation at room temperature, unbound ligand was precipitated by the addition of 100 μl precipitation buffer (binding buffer+10% w/v activated charcoal+2% BSA). The suspension was mixed vigorously and the adsorption was allowed to proceed for 2 min at room temperature. After centrifugation for 2 min at 12000×g, 200 μl supernatant was removed, mixed with 2 ml Ecolume liquid scintillation cocktail (ICN Biomedicals, Irvine, Calif.), and counted for 3 min in a Wallac 1209 Rackbeta liquid scintillation counter (Wallac, Turku, Finland). All assays were performed in duplicate and repeated at least three times. Binding data were analyzed using the Prism computer program (GraphPad Software, San Diego, Calif.).

rCRFBP [2] = target: T1, rCRFBP; experiment: Scintillation proximity assay with [125I-Tyr0]h/rCRF as radioligand, binding to rCRFBP; conditions: Example 8; 95% CI given alongside; read-out: IC50 (affinity to rCRFBP)
Method: Recombinant rCRFBP containing a C-terminal His-tag was produced in human embryonic kidney (HEK) 293 cells under serum-free conditions (45). Binding of peptides to rCRFBP was determined in PBS/0.02% NP-40 using a scintillation proximity assay with [^125I-Tyr^0]h/rCRF as radioligand (46).

[3] = mean ± S.E.M. of three independent experiments in duplicate; 3H-rUcn radioligand; Cheng-Prusoff; read-out: Inhibition constants (Kl)

| Substance | Ki (rCRFBP [1]; [3]) [nM] | IC50 (rCRFBP [2]) [nM] | Ki (rCRFBP [1]; read-out: Inhibition constants (Kl); mean ± S.E.M. of three independent experiments in duplicate; 3H-rUcn radioligand; Cheng-Prusoff) [nM] | Kd (rCRFBP [1]; read-out: KD at rCRFBP; homologous competition experiments; mean±S.E.M., n=3) [nM] |
| --- | --- | --- | --- | --- |
| pBB-h/rCRF [Compound 4] | 0.13 ± 0.003 | 0.67 |  |  |
| h/rCRF [Compound 3, reference compound] | 0.19 ± 0.009 |  |  |  |
| pBB-h/rCRF^6-33 [Compound 10] | 3.4 ± 0.33 | 3.2 |  |  |
| rUcn [Compound 1, reference compound] |  |  | 0.23 ± 0.012 | 0.17 ± 0.003 |
